# Reference: patent publication US20020106348A1, “Cancer therapeutics involving the administration of 2-methoxyestradiol and an agent that increases intracellular superoxide anion” (priority 2000, published 2002)
# System: human lung cancer cells (H1299)
# Details: 2-ME 1 μM, 24 h plus IR (gamma rays), various doses
structure (smiles),measurement,value
"COc1cc2c(cc1O)CC[C@@H]1[C@@H]2CC[C@]2(C)[C@@H](O)CC[C@@H]12 [2-ME, 1,3,5(10)-estratrien-2,3,17b-triol 2 methylether]","cell killing, combination with ionizing radiation",greater than the expected additive effect
